Entries after “also recorded” stand apart in the source; their conditions may differ.

For data set [1], the system named is U87MG cells. Put plainly: Cellular cytotoxicity, Cell Counting Kit-8 (CCK-8) assay. Format: cell-based, Human. The conditions noted are these: for IC50: U87MG cells, 72 h. As for the experimental part: (§1) Human glioma cells (U87MG) were obtained from American Type Culture Collection (ATCC; Manassas, VA, USA). Low SPARC-expressing U87MG cells, U87MG-shSPARC, were established from a previous study.
(§2) (1) U87MG and U87MG-shSPARC cells were added to 96-well plates (4000 cells/well). After overnight incubation, the cells were incubated with CDDP, HSA-CDDP at different concentrations for 72 h. Cell viability was analyzed using a Cell Counting Kit-8 (CCK-8, Dojindo Molecular Technologies, Tokyo, Japan) assay according to the manufacturer's protocols.
(2) To execute cellular cytotoxicity experiments of HSA bound with CDDPs in different numbers, U87MG cells were added to a 96-well plate (4000 cells/well) and incubated overnight. Then, the cells were incubated with HSA-CDDP(1.5), HSA-CDDP(2.3), HSA-CDDP(5.4) and HSA-CDDP(7.7) at different concentrations, respectively, for 72 hours. Cell viability was analyzed using a Cell Counting Kit-8 (CCK-8, Dojindo Molecular Technologies, Tokyo, Japan) assay according to the manufacturer's protocols.
A general note: Formazan colour is commonly taken as a measure of viable cells.

For the next data set, the system named is U87MG tumors. Put plainly: Tumor CDDP accumulation using ICP-MS. The conditions noted are these: 72 h after last of 7 IV doses. The format is in vivo, mice. As for the experimental part:
At 72 h after the last IV administration (15 days after first administration), mice were euthanized, and the tumor was acquired.
(§3) All samples (organs, blood, and tumors) were lyophilized and we analyzed the amount of CDDP using the ICP-MS (NexION 350; Perkin-Elmer, Waltham, MA, USA) installed at the National Center for Inter-university Research Facilities (NCIRF) at Seoul National University.

Data set [2] in a line: Biosafety: body weight and blood biochemical analysis. The conditions noted are these: overall conclusion of biosafety study. Format: in vivo, mice. As for the experimental part: After centrifugation at 4° C. for 20 min, the plasma was collected for blood biochemical analysis. The concentrations of AST, ALT, BUN, and creatinine were analyzed at DKKorea (Seoul, Korea).
Data set [3] concerns U87MG-shSPARC cells. Put plainly: Confocal microscopy cellular uptake of FNR648-HSA-CDDP. Format: cell-based. The note with it: co-treatment with human SPARC 5 μg/mL, 2 h. How it is done:
(§4) We conjugated HSA with FNR648 fluorescence dye following the procedure described in our previous publication. For FNR648 dye labeling to HSA-CDDP, we used the same method as that used for HSA. First, HSA-CDDP was modified using dibenzocyclooctyne (DBCO)-NHS. DBCO-HSA-CDDP was reacted with FRN648 dye at a molar ratio of 1:1 for 30 min at 37° C. Fluorescence labeled HSA-CDDP was purified using PD-10 columns (GE Healthcare, Buckinghamshire, UK) and eluted with PBS.
(§5) Cellular uptake of fluorescence labeled HAS or HSA-CDDP(4.1) followed the same procedure described in our previous publication. We incubated cells with FNR648-HSA or FNR648-HSA-CDDP for 2 h at 37° C. In the exogenous SPARC treatment group, human SPARC (5 μg/mL) and each compound (FNR648-HSA or FNR648-HSA-CDDP) were co-incubated for 2 h at 37° C. Five randomized images were acquired from all tests to quantify FNR648-HSA or FNR648-HSA-CDDP uptake by the cells. In each group, the average signal intensity of FNR648-HSA or FNR648-HSA-CDDP was divided by the number of DAPI-positive cells, which represented the number of viable cells in the image. This ratio was considered as cellular uptake of each group and used to quantify cellular uptake of each material.

A short description of data set [4]: Biodistribution of CDDP in organs and blood using ICP-MS. The format is in vivo, mice. The conditions noted are these: 72 h after last of 7 IV doses. How it is done: Normal mice were divided into 2 groups (n=4 for each group) and IV administrated with CDDP or HSA-CDDP(4.1) at the same dose and time schedule as the anti-tumor effect examination (3 mg/kg CDDP and equivalent dose of HSA-CDDP as CDDP every other day, seven times). At 72 h after the final IV administration (15 days after first IV administration), mice were euthanized and organs (brain, heart, liver, kidney, spleen, and lung) and blood were acquired and weighed.
as §3

Data set [5] relates to U87MG cells. Put plainly: Cell apoptosis, Annexin V-FITC/PI flow cytometry. Format: cell-based, Human. As for the experimental part: (§6) U87MG and U87MG-shSPARC cells were placed into 6-well plates (1.2×10^5 cells/well). After overnight incubation, cells were treated with CDDP, HSA-CDDP for 72 h. Cells were then harvested and co-stained with PI and Annexin V using an Annexin V-FITC apoptosis detection kit (BD, San Jose, CA, USA). The apoptosis of cells was analyzed using flow cytometry.
(In general: In flow cytometry, cells or beads pass a laser one at a time.)

The subject of data set [6] is U87MG-shSPARC cells. Put plainly: Cell apoptosis, Annexin V-FITC/PI flow cytometry. The format is cell-based, Human. The conditions noted are these: 19.3 μM, 72 h, FIG. 3. As for the experimental part: as §6
The next data set concerns U87MG tumor xenograft. Put plainly: Xenograft tumor model, anti-tumor effect in vivo.
For data set [7], the system named is U87MG-shSPARC tumor xenograft. Put plainly: Xenograft tumor model, anti-tumor effect in vivo. Further details: species or system BALB/c nude mice.
Data set [8] has as its system U87MG-shSPARC cells. Put plainly: Cellular cytotoxicity, Cell Counting Kit-8 (CCK-8) assay. The format is cell-based, Human. The conditions noted are these: 72 h, CCK-8, n=5, Table 1. How it is done:
as §1, §2

Data set [9] relates to U87MG cells. Put plainly: Confocal microscopy cellular uptake of FNR648-HSA-CDDP. The format is cell-based, Human. The note with it: U87MG vs U87MG-shSPARC cells, 2 h at 37° C., n=5, p<0.001. How it is done:
as §4, §5

[10] abbreviates: CCK-8, n=6, Table 2 (CDDP number-dependent HSA).

In the data set with U87MG cells [1] (setting [10]), HSA-CDDP(1.5) came in with a concentration for half-maximal inhibition (IC50) of roughly 101 µM.

The substance HSA-CDDP(2.3) had an IC50 in the data set on U87MG cells [1] (setting [10]) of roughly 55.2 µM.

In the case of HSA-CDDP(4.1), the “accumulation of CDDP, U87MG vs U87MG-shSPARC tumors” value in the data set on U87MG tumors (FIG. 6B) was “U87MG tumors showed a higher accumulation of CDDP than U87MG-shSPARC tumors”. In the data set with U87MG tumors (U87MG tumors, p<0.05), the “U87MG tumor accumulation of CDDP” value was “significantly higher than the CDDP group; also recorded: significantly increased CDDP accumulation than the CDDP group”. The nephrotoxicity in vivo result in data set [2] is recorded as “reduced the nephrotoxicity of CDDP”. Further, in the data set with U87MG-shSPARC cells [3], the “cellular uptake with exogenous SPARC” value is on record as “highly accumulated in U87MG-shSPARC cells”. Besides, the “accumulation in the liver” value in [4] is listed as “highly accumulated in the liver”. Moreover, the “accumulation of CDDP in organs” value in data set [4] (brain, heart, liver, kidney, spleen, lung) is on record as “all organs except the brain showed higher accumulation of CDDP”. Moreover, the blood distribution result in data set [4] (normal mice, ICP-MS) was “higher blood distribution than CDDP”. Also, the “apoptotic cell percentage compared with CDDP” value with U87MG cells [5] (U87MG cells, HSA-CDDP 19.3 μM vs CDDP 4.9 μM) is “higher apoptotic cell percentage than CDDP”. Further, the apoptosis rate with U87MG cells [5] (U87MG, 19.3 μM, 72 h, FIG. 3) is recorded as 23.2%; in the data set with U87MG-shSPARC cells [6], 8.8%. Also, in the data set with U87MG cells [5] (different concentrations, FIG. 4B), the apoptosis induction entry is listed as “induced apoptosis in a dose-dependent manner”. Further, the survival rate result with U87MG tumor xenograft (U87MG tumor model vs PBS group, FIG. 5E) is given as “prolonged survival time than the PBS group”. Further, the tumor growth result with U87MG tumor xenograft (U87MG tumor model, 12 days after first drug treatment, 3 mg/kg CDDP equivalent IV every other day 7 times, p<0.001) was “significantly reduced tumor growth than the PBS group”; in data set [7] (U87MG-shSPARC tumor model, 26 days after first drug treatment, 3 mg/kg CDDP equivalent IV every other day 7 times) it was “no difference in tumor growth to PBS”. Besides, the Median survival was 20 days in the data set on U87MG tumor xenograft (U87MG tumor xenograft model, 3 mg/kg CDDP equivalent IV 7 times) and 32 days in data set [7] (U87MG-shSPARC tumor xenograft model, 3 mg/kg CDDP equivalent IV 7 times). Also, in the data set on U87MG cells [1] (U87MG and U87MG-shSPARC cells, CCK-8, FIG. 2B), the toxicity toward cells result is “dose-dependent toxicity”. The half-maximal inhibitory concentration (IC50) in the data set on U87MG cells [1] (CCK-8, n=5, Table 1) is 11.5 ± 0.173 µM; in the data set on U87MG-shSPARC cells [8], roughly 59.3 µM. For the same substance, in the data set with U87MG cells [9], the cellular uptake entry is reported as “higher uptake of HSA-CDDP(4.1) in U87MG cells than U87MG-shSPARC cells”.

The substance HSA-CDDP(5.4) displayed a 50% inhibitory concentration (IC50) with U87MG cells [1] (setting [10]) of 37.64 ± 0.14 µM.

In the data set on U87MG cells [1] (setting [10]), HSA-CDDP(7.7) yielded a 50% inhibitory concentration (IC50) of 37.3 ± 0.15 µM.

What is called IC50 is the concentration needed to halve the response being measured. Low values mean higher potency, high ones lower potency.

The values are drawn from US20240148836A1, “COMPOSITION FOR TREATING CANCER EXPRESSING SPARC” (SEOUL NATIONAL UNIVERSITY R&DB FOUNDATION, priority 2021, published 2024).
